Kd data for one molecule are collected here from article doi:10.1101/2023.07.21.550003 (bioRxiv, 2023).

The target of assay [1] is T1, canonical HER2, extracellular region (residues 22-587) (human, UniProt P04626 22-587).
T1 chain: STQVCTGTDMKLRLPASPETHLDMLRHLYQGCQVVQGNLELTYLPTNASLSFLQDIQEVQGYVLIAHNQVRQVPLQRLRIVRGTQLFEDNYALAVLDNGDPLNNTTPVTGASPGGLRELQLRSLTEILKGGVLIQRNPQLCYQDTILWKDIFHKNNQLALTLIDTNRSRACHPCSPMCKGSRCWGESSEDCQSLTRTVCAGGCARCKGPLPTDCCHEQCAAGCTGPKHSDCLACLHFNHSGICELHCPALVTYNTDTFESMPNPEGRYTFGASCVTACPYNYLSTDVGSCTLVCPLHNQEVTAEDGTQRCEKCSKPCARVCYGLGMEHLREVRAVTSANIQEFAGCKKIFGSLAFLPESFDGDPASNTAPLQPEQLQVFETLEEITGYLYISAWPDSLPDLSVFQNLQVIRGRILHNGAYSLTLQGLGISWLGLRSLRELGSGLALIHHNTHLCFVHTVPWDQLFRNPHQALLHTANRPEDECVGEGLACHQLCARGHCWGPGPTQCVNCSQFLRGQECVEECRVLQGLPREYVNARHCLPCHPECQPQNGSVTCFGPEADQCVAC
Put plainly: ELISA. Background: In an ELISA, binding on a coated surface is turned into a signal by an enzyme label.

In assay [2] the target is T1, canonical HER2, extracellular region …. The assay is described as follows: ELISA.

The Kd is the constant that tells how readily two partners part at equilibrium. Low readings indicate higher affinity, high ones lower affinity.

Where two headings read alike, the source gives them in different places.

B1: Pertuzumab IgG (antibody, V domains shown)
VH: EVQLVESGGGLVQPGGSLRLSCAASGFTFTDYTMDWVRQAPGKGLEWVADVNPNSGGSIYNQRFKGRFTLSVDRSKNTLYLQMNSLRAEDTAVYYCARNLGPSFYFDYWGQGTLVTVSS
VL: DIQMTQSPSSLSASVGDRVTITCKASQDVSIGVAWYQQKPGKAPKLLIYSASYRYTGVPSRFSGSGSGTDFTLTISSLQPEDFATYYCQQYYIYPYTFGQGTKVEIK
With B1, the Kd in assay [1] worked out at 0.817 nM; in assay [2], 0.777 nM.
